Measurements from ChEMBL document CHEMBL1134554, “Design, synthesis, and structure-activity relationships of macrocyclic hydroxamic acids that inhibit tumor necrosis factor alpha release in vitro and in vivo” (J Med Chem, 2001).
pIC50: −log10 of the molar value.

Chains of the proteins cited; added tags and fusions are not shown. Lines headed by an entry give the natural chain unless they say otherwise; changes in a name come on top.
UniProt P78536: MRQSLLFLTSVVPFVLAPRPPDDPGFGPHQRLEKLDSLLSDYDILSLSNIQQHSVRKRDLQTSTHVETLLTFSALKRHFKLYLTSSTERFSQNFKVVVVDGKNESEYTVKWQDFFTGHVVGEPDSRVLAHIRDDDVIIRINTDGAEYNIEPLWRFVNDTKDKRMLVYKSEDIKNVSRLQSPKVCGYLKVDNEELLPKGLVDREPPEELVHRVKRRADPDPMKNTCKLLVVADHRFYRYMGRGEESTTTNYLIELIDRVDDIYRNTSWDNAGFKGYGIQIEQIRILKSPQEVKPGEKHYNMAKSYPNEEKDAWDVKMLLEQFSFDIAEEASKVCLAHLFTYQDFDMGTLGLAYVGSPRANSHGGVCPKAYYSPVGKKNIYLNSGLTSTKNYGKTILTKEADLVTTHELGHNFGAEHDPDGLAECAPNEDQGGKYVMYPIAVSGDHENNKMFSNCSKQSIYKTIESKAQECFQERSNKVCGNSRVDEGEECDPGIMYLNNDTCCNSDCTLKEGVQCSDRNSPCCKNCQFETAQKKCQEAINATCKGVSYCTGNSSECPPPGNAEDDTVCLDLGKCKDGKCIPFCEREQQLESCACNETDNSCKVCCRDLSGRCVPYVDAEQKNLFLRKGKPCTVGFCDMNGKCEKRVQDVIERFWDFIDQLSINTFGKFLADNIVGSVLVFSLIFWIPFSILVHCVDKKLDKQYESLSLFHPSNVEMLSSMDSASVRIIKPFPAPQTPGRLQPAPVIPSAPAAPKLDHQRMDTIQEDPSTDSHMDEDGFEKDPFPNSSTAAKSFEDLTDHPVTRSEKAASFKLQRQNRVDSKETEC

Molecular target: Disintegrin and metalloproteinase domain-containing protein 17 (Homo sapiens, UniProt P78536)

- pIC50: 5.39
Structure (SMILES): CNC(=O)[C@@H](NC(=O)[C@H](CC(C)C)[C@H](O)C(=O)NO)C(C)(C)C
